pIC50: −log10 of the molar value.
Assays:
Leishmania infantum = test: L. inf growth inhibition in mouse macrophages (LMPH); type: cell-based; conditions: Macrophage, read-out: IC50 L. inf
Trypanosoma cruzi = test: T. cruzi growth inhibition on MRC-5 cells (LMPH); type: cell-based; conditions: MRC5, read-out: IC50 T. cruzi
L. donovani = test: acute VL infection assay (L. don mouse model, LSHTM); type: in vivo; conditions: Leishmania donovani, po, 120 h; for inhibition in vivo at 6.25 mg/kg: read-out: in vivo efficacy against L. don (mouse), % inhibition, 6.25 mg/kg orally once daily 5 days
L. infantum = test: chronic VL infection assay 2 (L. inf hamster model, LMPH); type: in vivo, Leishmania infantum; conditions: 6.25 mg/kg b.i.d. orally 5 days
Leishmania donovani = test: microbe, parasite or virus in culture; conditions: read-out: IC50 L. don

O=[N+]([O-])c1cn2c(n1)OC(COc1ccc(-c3ccc(F)cc3)nc1)CC2 (centres unmarked)
pIC50 (Leishmania infantum): 7.03
pIC50 (Trypanosoma cruzi): 6.57
ED50 (L. donovani): 5.1 mg/kg
inhibition in vivo at 6.25 mg/kg (L. donovani; liver): 59%
inhibition in vivo at 12.5 mg/kg (L. donovani; read-out: in vivo efficacy against L. don (mouse), % inhibition, 12.5 mg/kg orally once daily 5 days, liver): 76%

O=[N+]([O-])c1cn2c(n1)O[C@H](COc1ccc(-c3ccc(F)cc3)nc1)CC2
pIC50 (Leishmania infantum): 6.66
pIC50 (Trypanosoma cruzi): 6.54
% inhibition in target organs: bone marrow (L. infantum): 35.0%
% inhibition in target organs: liver (L. infantum): 53.1%
% inhibition in target organs: spleen (L. infantum): 46.7%
pIC50 (Leishmania donovani): 7.10

O=[N+]([O-])c1cn2c(n1)O[C@@H](COc1ccc(-c3ccc(OC(F)(F)F)cc3)nc1)CC2
pIC50 (Leishmania infantum): 6.96
pIC50 (Trypanosoma cruzi): 6.59

O=[N+]([O-])c1cn2c(n1)O[C@H](COc1ccc(-c3ccc(OC(F)(F)F)cc3)nc1)CC2
pIC50 (Leishmania infantum): 6.89
pIC50 (Trypanosoma cruzi): 6.89

O=[N+]([O-])c1cn2c(n1)OC(COc1ccc(-c3ccc(F)cc3)cn1)CC2 (centres unmarked) [compound 59, 7-({[5-(4-Fluorophenyl)pyridin-2-yl]oxy}methyl)-2-nitro-6,7-dihydro-5H-imidazo[2,1-b][1,3]oxazine]
pIC50 (Leishmania infantum): 7.30
pIC50 (Trypanosoma cruzi): 7.57

CC1(COc2ccc(-c3ccc(F)cc3)cn2)CCn2cc([N+](=O)[O-])nc2O1 (centres unmarked) [compound 61]
pIC50 (Leishmania infantum): 7.01
pIC50 (Trypanosoma cruzi): 6.64

O=[N+]([O-])c1cn2c(n1)O[C@@H](COc1ccc(-c3ccc(F)cc3)nc1)CC2 [compound 79, (7R)-7-({[6-(4-Fluorophenyl)pyridin-3-yl]oxy}methyl)-2-nitro-6,7-dihydro-5H-imidazo[2,1-b][1,3]oxazine]
pIC50 (Leishmania infantum): 7.10
pIC50 (Trypanosoma cruzi): 6.46
inhibition in vivo at 6.25 mg/kg (L. donovani; liver): 93%
pIC50 (Leishmania donovani): 7.52

CC1(COc2ccc(-c3ccc(F)cc3)nc2)CCn2cc([N+](=O)[O-])nc2O1 (centres unmarked) [compound 90]
pIC50 (Leishmania infantum): 6.23
pIC50 (Trypanosoma cruzi): 6.59

O=[N+]([O-])c1cn2c(n1)OC(COc1ccc(-c3ccc(F)cc3F)nc1)CC2 (centres unmarked) [compound 91]
pIC50 (Leishmania infantum): 7.52
pIC50 (Trypanosoma cruzi): 6.89

O=[N+]([O-])c1cn2c(n1)OC(COc1ccc(-c3ccc(OC(F)(F)F)cc3)nc1)CC2 (centres unmarked) [compound 93]
pIC50 (Leishmania infantum): 6.92
pIC50 (Trypanosoma cruzi): 6.77
